The source of these data is US20180360749A1, “METHODS AND COMPOSITIONS FOR DELIVERY OF MEDICAMENTS TO THE LUNGS” (Paka Pulmonary Pharmaceuticals, priority 2007, published 2018).

By UniProt entry, the sequences of proteins in these tests, tags left out. Residues count along the entry.
UniProt P08246, 30-267 limits assumed: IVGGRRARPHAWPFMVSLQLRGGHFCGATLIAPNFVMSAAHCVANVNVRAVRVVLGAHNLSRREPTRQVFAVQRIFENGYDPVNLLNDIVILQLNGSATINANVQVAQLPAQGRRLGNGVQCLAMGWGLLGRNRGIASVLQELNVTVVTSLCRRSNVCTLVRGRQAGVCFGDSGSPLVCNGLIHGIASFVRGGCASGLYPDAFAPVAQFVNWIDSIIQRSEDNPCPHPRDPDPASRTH

In assay [1] the target is T1, HNE (Homo sapiens, UniProt P08246). Briefly: Kinetic studies of affinity for HNE. It is filed as biochemical. The conditions noted are these: read-out: affinity for HNE.
In assay [2] the target is T1, HNE. Briefly: Bronchoalveolar lavage of the lungs following HNE exposure (lung blood cell level). It is filed as in vivo. As to conditions: mice. The method, then:
A total of 14 animals were used in this study. Anesthetized mice received 0.1 ml of solution delivered by a blunt tip catheter to the opening of the trachea and the animals allowed to aspirate the solution into their lungs. All animals were exposed to the treatment for 2 hours and re-anesthetized. Bronchoalveolar lavage of the lungs was performed as described below. […] Target 2 (a potent HNE inhibitor developed by Zeneca in the early 1990s) when given with the HNE, reduced the average blood level in the lungs by 34% to 0.035 grams. Target C (the Zeneca molecule covalently attached to the N-terminus of the first 25 residues of the human surfactant B peptide) when given with the HNE reduced the average blood level in the lungs by 87% to 0.007 grams.
A set of animals was used to determine the optimal concentration of HNE for the study. […] The amount of HNE was reduced to 40 micrograms to maintain a maximal detrimental but survivable effect. The animals exposed to 40 micrograms of HNE were able to survive long enough to perform the complete study. All animals remaining in the complete study were exposed to 40 micrograms of HNE.
Target 2 (the Zeneca molecule) was given in a 70-fold molar excess relative to HNE. In the kinetic studies, Target 2 has 2 nM affinity. Target C (the Zeneca molecule covalently attached to the first 25 residues of the human surfactant peptide B) loses approximately two orders of magnitude of potency as compared to Target 2 in the kinetic studies and thus Target C has approximately 200 nM affinity for HNE. Accordingly, the Target C was given to the animals in a 100 fold molar excess relative to HNE in these studies.
Bronchio-Alveolar lavage (BAL) is performed by 1) anesthetizing the animals; 2) performing a tracheotomy on the animals and cutting open the chest and spreading the ribs to enable full lung expansion; 3) pressurizing lml of PBS buffer solution into the lungs through the tracheotomy catheter; 4) sucking the solution out of the lungs; 5) centrifuging the recovered solution to separate the red blood cell fraction from the liquid fraction; and 6) weighing the red blood cell fraction.

The mark [3] stands for this setting: given with 40 micrograms HNE via trachea, 2 hours exposure, weight of BAL red blood cell fraction, Target 2 70-fold, Target C 100 fold molar excess relative to HNE.

Take `CC(C)[C@H](NC(=O)CC(=O)O)C(=O)N1CCCC1C(=O)N[C@H](C(=O)C(F)(F)C(=O)NCc1ccccc1)C(C)C` (some centres unmarked): on HNE [1], the Ki was 2 nM. The “Lung Blood Cell Level Measurements, Mouse Group 4” value at HNE [2] (given with 40 micrograms HNE via trachea, 2 hours exposure, weight of BAL red blood cell fraction, Target 2 70-fold molar excess relative to HNE) turned out to be 0.039 g. Besides, on HNE [2] (setting [3]), the “Lung Blood Cell Level Measurements, Mouse group 1” value turned out to be 0.03 g; the “Lung Blood Cell Level Measurements, Mouse group 2” value is 0.041 g; the “Lung Blood Cell Level Measurements, Mouse group 3” value is reported as 0.03 g. The “Lung Blood Cell Level Measurements, Group mean” value on HNE [2] (given with 40 micrograms HNE, 2 hours exposure, mean of the mouse groups) stood at 0.035 g. Moreover, the “average blood level in the lungs (lung blood cell level by weight)” value on HNE [2] (given with the HNE, 2 hours exposure) is 0.035 grams. For the same molecule, the “reduction of the average blood level in the lungs” value at HNE [2] (given with the HNE, relative to animals given HNE (0.053 grams)) is 34%.
